What was measured:
[1] = biological target: T1, Delta-type opioid receptor (Rattus norvegicus, UniProt P33533); assay: Displacement of [3H]DPDPE from rat delta opioid receptor expressed in CHO cell membrane measured after 30 mins by liquid scintillation counting method
[2] = biological target: T2, Kappa-type opioid receptor (Homo sapiens, UniProt P41145); assay: Displacement of [3H]U69,593 from human kappa opioid receptor expressed in CHO cell membrane measured after 30 mins by liquid scintillation counting method
[3] = biological target: Mu-type opioid receptor (Rattus norvegicus, UniProt P33535); assay: Displacement of [3H]DAMGO from rat mu opioid receptor expressed in CHO cell membrane measured after 30 mins by liquid scintillation counting method
[4] = biological target: T1, Delta-type opioid receptor; assay: Agonist activity at rat delta opioid receptor expressed in CHO cell membrane incubated for 1 hr by [35S]GTPgammaS binding based liquid scintillation counting method
[5] = biological target: T2, Kappa-type opioid receptor; assay: Agonist activity at human kappa opioid receptor expressed in CHO cell membrane incubated for 1 hr by [35S]GTPgammaS binding based liquid scintillation counting method
[6] = test system: Mus musculus; assay: Antinociceptive activity in ip dosed Kunming mouse measured after 3.5 to 4 hrs by hot plate test; settings: time 3.5-4 hrs
[7] = test system: Mus musculus; assay: Antinociceptive activity in ip dosed Kunming mouse assessed as reduction in acetic acid induced writhing signs measured after 3.5 to 4 hrs by abdominal constriction test; settings: time 3.5-4 hrs

Structure (SMILES) | Ki [1] [nM] | Ki [2] [nM] | Ki [3] [nM] | EC50 [4] [nM] | EC50 [5] [nM] | ED50 [6] [mg/kg] | ED50 [7] [mg/kg]
COc1cccc(CNc2cccc([C@H]3C[C@@]45CC[C@]3(OC)[C@@H]3Oc6c(OC)ccc7c6[C@@]34CCN(CC3CC3)[C@@H]5C7)c2)c1 | 2250 | 11.7 | 37.6 | – | – | – | –
COc1ccc2c3c1O[C@H]1[C@@]4(OC)CC[C@@]5(C[C@@H]4c4cccc(NCC6CC6)c4)[C@@H](C2)N(CC2CC2)CC[C@]315 | 524 | 6 | 501 | 844 | 60.2 | – | –
COc1ccc2c3c1O[C@H]1[C@@]4(OC)CC[C@@]5(C[C@@H]4c4cccc(NCc6ccc(C(F)(F)F)cc6)c4)[C@@H](C2)N(CC2CC2)CC[C@]315 | > 5000 | 51 | 1580 | – | – | – | –
COc1ccc2c3c1O[C@H]1[C@@]4(OC)CC[C@@]5(C[C@@H]4c4cccc(NC(=O)c6ccc(C)c(C)c6)c4)[C@@H](C2)N(CC2CC2)CC[C@]315 | 1370 | 37.4 | 375 | – | – | – | –
COc1ccc2c3c1O[C@H]1[C@@]4(OC)CC[C@@]5(C[C@@H]4c4cccc(NCc6ccc(OC(C)=O)cc6)c4)[C@@H](C2)N(CC2CC2)CC[C@]315 | 612 | 13.9 | 92.2 | – | – | – | –
COc1ccc2c3c1O[C@H]1[C@@]4(OC)CC[C@@]5(C[C@@H]4c4cccc(NCC6CCC6)c4)[C@@H](C2)N(CC2CC2)CC[C@]315 | 624 | 7.2 | 38.8 | – | – | – | –
COc1ccc2c3c1O[C@H]1[C@@]4(OC)CC[C@@]5(C[C@@H]4c4cccc(NCc6ccc(OCC7CCC7)cc6)c4)[C@@H](C2)N(CC2CC2)CC[C@]315 | 829 | 224 | 41.4 | – | – | – | –
COc1ccc2c3c1O[C@H]1[C@@]4(OC)CC[C@@]5(C[C@@H]4c4cccc(NCc6ccccc6)c4)[C@@H](C2)N(CC2CC2)CC[C@]315 | > 10000 | 207 | > 5000 | – | – | – | –
COc1ccc2c3c1O[C@H]1[C@@]4(OC)CC[C@@]5(C[C@@H]4c4cccc(NCc6ccc([N+](=O)[O-])cc6)c4)[C@@H](C2)N(CC2CC2)CC[C@]315 | 1860 | 48.7 | 48.2 | – | – | – | –
COc1ccc2c3c1O[C@H]1[C@@]4(OC)CC[C@@]5(C[C@@H]4c4cccc(NCc6ccc(Cl)nc6)c4)[C@@H](C2)N(CC2CC2)CC[C@]315 | 268 | 8 | 237 | – | – | – | –
COc1ccc2c3c1O[C@H]1[C@@]4(OC)CC[C@@]5(C[C@@H]4c4cccc(NCc6ccc(O)cc6)c4)[C@@H](C2)N(CC2CC2)CC[C@]315 | 1100 | 16.1 | 52.8 | – | – | – | –
CNc1cccc([C@H]2C[C@@]34CC[C@]2(OC)[C@@H]2Oc5c(OC)ccc6c5[C@@]23CCN(CC2CC2)[C@@H]4C6)c1 | 179 | 61 | 211 | – | – | – | –
COc1ccc(C(=O)Nc2cccc([C@H]3C[C@@]45CC[C@]3(OC)[C@@H]3Oc6c(OC)ccc7c6[C@@]34CCN(CC3CC3)[C@@H]5C7)c2)cc1 | 5720 | 268 | 52.7 | – | – | – | –
COc1ccc2c3c1O[C@H]1[C@@]4(OC)CC[C@@]5(C[C@@H]4c4cccc(NCc6ccc(OCC7CC7)cc6)c4)[C@@H](C2)N(CC2CC2)CC[C@]315 | > 10000 | 200 | 368 | – | – | – | –
COc1ccc2c3c1O[C@H]1[C@@]4(OC)CC[C@@]5(C[C@@H]4c4cccc(NCc6ccc(OC(F)(F)F)cc6)c4)[C@@H](C2)N(CC2CC2)CC[C@]315 | – | 423 | 267 | – | – | – | –
COc1ccc(CNc2cccc([C@H]3C[C@@]45CC[C@]3(OC)[C@@H]3Oc6c(OC)ccc7c6[C@@]34CCN(CC3CC3)[C@@H]5C7)c2)cc1 | 440 | 7.1 | 1880 | 810 | 4.3 | 0.1 | 0.2
COc1ccc2c3c1O[C@H]1[C@@]4(OC)CC[C@@]5(C[C@@H]4c4cccc(NCC(O)COc6cccc7[nH]c8ccccc8c67)c4)[C@@H](C2)N(CC2CC2)CC[C@]315 (stereo partly specified) | 3000 | 93.8 | 1500 | – | – | – | –
COc1ccc2c3c1O[C@H]1[C@@]4(OC)CC[C@@]5(C[C@@H]4c4cccc(N)c4)[C@@H](C2)N(CC2CC2)CC[C@]315 | 85.6 | 13.7 | 69 | – | – | – | –
COc1ccc2c3c1O[C@H]1[C@@]4(OC)CC[C@@]5(C[C@@H]4c4cccc(NCc6ccc(F)cc6)c4)[C@@H](C2)N(CC2CC2)CC[C@]315 | 443 | 9.8 | 34.5 | – | – | – | –
COc1ccc2c3c1O[C@H]1[C@@]4(OC)CC[C@@]5(C[C@@H]4c4cccc(NC(=O)c6ccccc6)c4)[C@@H](C2)N(CC2CC2)CC[C@]315 | 446 | 46.5 | 372 | – | – | – | –
COc1ccc2c3c1O[C@H]1[C@@]4(OC)CC[C@@]5(C[C@@H]4c4cccc(NCc6ccc(N)cc6)c4)[C@@H](C2)N(CC2CC2)CC[C@]315 | 662 | 6.6 | 30.5 | – | – | – | –
COc1ccc2c3c1O[C@H]1[C@@]4(OC)CC[C@@]5(C[C@@H]4c4cccc(NC(=O)C6CC6)c4)[C@@H](C2)N(CC2CC2)CC[C@]315 | 458 | 243 | 143 | – | – | – | –

From ChEMBL document CHEMBL4840326, “Discovery of an M-Substituted N-Cyclopropylmethyl-7α-phenyl-6,14-endoethanotetrahydronorthebaine as a Selective, Potent, and Orally Active κ-Opioid Receptor Agonist with an Improved Central Nervous System Safety Profile” (2021)
